# Experimental data reported in US12031977B2, “Ex vivo system for determining multiple drug-drug transporter interactions and methods of use thereof” (Massachusetts Institute of Technology, priority 2019, dated 2024).
# Tests used:
# [1] = test system: Pgp, BCRP, MRP2; details: transporter(s) reported in previous literature for the drug; cited from earlier work
# [2] = test system: P-gp, BCRP, and MRP2; experiment: mock screening of model drugs: ex vivo perfusion through porcine small intestine tissue after siRNA knockdown; details: transporter(s) found by siRNA knockdown perfusion screen
SMILES,Literature Target [1],Platform Target [2]
CC(C)Cc1ccc(C(C)C(=O)O)cc1 (stereo not shown) [Ibuprofen],Pgp,Pgp
C=C[C@H]1C[N@@]2CC[C@H]1C[C@H]2[C@H](O)c1ccnc2ccc(OC)cc12 [Quinine],Pgp & BCRP,Pgp & BCRP
